For one molecule, Degradation results are on record in patent US9426989B2 (priority 2010, dated 2016).

This data set can be described thus: Stability of the compounds assessed by NMR (PBS, MEM).

As to `CCCC(OO)OO`, the Degradation is, setting by setting: (MEM: 24 hours, 5° C.) 11%; (MEM: 24 hours, 25° C.) 15%; (MEM: 24 hours, 37° C.) 30%; (PBS: 16 hours, 2-8° C., then 3 hours at 37° C.) “None”.
